Values quoted from earlier work in patent US11529340B2 (priority 2016, dated 2022).

The chains behind the UniProt entries cited, without tags or fusion partners.
UniProt P21447, whole entry, looked up: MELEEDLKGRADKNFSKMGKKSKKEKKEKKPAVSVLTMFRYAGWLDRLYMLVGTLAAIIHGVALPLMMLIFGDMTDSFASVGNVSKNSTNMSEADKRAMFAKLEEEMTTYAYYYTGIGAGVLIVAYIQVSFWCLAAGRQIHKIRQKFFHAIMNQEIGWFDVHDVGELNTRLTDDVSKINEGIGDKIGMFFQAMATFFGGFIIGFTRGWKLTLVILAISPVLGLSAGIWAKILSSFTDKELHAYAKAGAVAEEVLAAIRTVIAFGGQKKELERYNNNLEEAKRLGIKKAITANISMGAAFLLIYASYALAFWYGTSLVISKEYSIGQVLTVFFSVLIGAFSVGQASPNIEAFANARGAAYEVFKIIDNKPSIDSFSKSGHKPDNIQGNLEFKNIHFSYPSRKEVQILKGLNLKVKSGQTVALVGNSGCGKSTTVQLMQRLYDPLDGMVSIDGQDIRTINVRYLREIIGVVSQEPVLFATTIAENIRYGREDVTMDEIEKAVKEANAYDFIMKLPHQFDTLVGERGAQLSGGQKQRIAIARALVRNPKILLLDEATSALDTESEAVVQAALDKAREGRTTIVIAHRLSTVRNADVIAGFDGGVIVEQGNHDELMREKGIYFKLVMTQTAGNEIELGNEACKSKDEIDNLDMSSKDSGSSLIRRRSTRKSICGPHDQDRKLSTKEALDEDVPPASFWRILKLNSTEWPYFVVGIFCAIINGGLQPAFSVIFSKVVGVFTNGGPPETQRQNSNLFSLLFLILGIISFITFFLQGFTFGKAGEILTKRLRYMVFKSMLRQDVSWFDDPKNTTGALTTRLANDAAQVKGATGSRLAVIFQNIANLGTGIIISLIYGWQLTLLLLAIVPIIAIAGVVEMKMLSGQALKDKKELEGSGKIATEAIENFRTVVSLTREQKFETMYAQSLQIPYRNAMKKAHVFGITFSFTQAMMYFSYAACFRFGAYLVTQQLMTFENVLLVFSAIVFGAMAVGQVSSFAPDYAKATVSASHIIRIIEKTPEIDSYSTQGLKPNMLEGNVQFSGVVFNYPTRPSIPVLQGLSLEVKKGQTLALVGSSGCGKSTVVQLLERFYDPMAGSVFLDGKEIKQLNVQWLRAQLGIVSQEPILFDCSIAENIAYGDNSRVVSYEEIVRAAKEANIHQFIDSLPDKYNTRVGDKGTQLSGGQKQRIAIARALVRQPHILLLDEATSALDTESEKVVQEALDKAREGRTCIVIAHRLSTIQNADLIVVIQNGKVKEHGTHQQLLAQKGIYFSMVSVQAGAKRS

Biological target: p-glycoprotein (P-gp) (Mus musculus, UniProt P21447)
Settings: relative to morphine, fentanyl and meperidine; cited from earlier work

Structure (SMILES): CN(C)C(=O)C(CCN1CCC(O)(c2ccc(Cl)cc2)CC1)(c1ccccc1)c1ccccc1 [loperamide]
- susceptibility to export from the CNS by P-gp: almost ten times that of morphine, fentanyl and meperidine
